The experiment addresses DNA polymerase beta (Rattus norvegicus) (UniProt P06766). Put plainly: Inhibition of DNA-polymerase beta binary complex formation by DNA binding mobility shift assay.

Molecules are shown by their SMILES. Calls of active or inactive are those of the source. The rule behind the calls is not given here.

Consider `O=c1ccc2ccc(Oc3cc4ccc(O)cc4oc3=O)cc2o1` [EDGEWORIN], for which the outcome was Active.
